Molecular target: GST-tagged AP2 core comprising α/β-adaptin trunks, μ2, and σ2 (UniProt P18484)
Assay: pull-down; 100 μg recombinant GST fusion protein on beads with 0.2 μM and 2 μM recombinant synuclein in 500 μl pulldown buffer (250 mM NaCl, 10 mM Tris pH 8.7, 2 mM DTT), 2 h at 4 °C; washes 3 × 15 min with 500 mM NaCl; Western blot, band intensity in arbitrary units

band intensity of α-synuclein pulled down, at 0.2 μM α-synuclein: 3670 AU | band intensity of α-synuclein pulled down, at 2 μM α-synuclein: 14600 AU
Substance: recombinant full-length human α-synuclein (a.a. 1–140) (from UniProt P37840 1-140) (natural protein)

— paper PMC12143788
